Measured values published in PubChem BioAssay AID463212 (Sanford-Burnham Center for Chemical Genomics, 2010).
Only a part is listed here, and it is no random draw. Calls of active or inactive are those of the source.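 Rule for the calls: active = growth inhibition of the mutant yeast at or above 50%; inactive = the rest.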

Test: growth inhibitors of tim23-1 mutant yeast, primary screen, luminescence, uHTS (AID 463212);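 note: temperature-sensitive mutant grown at 25 °C; plate controls were DMSO-treated mutant yeast for no effect and medium wells lacking yeast for full effect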
Conditions: S. cerevisiae tim23-1 growth, BacTiter-Glo luminescence, 24 h; at 20 µM; hits give high values

| SMILES | inhibition |
| --- | --- |
| CCCOc1ccc(C)cc1CN(CCCl)CCCl | inactive: -1.3% |
| CN1CCC(Nc2ccc(Cl)cc2)CC1 | inactive: 11.5% |
| CCC(CO)(C(=O)OC1CN2CCC1CC2)c1ccccc1 (configuration not stated) | inactive: 15.1% |
| COc1cc(OC)cc(C(=O)NCC2(N3CCOCC3)CCCCC2)c1 | inactive: 3.56% |
| COc1cccc(C(=O)N(c2cc(C)cc(C)c2)C2CCN(C(=O)OC(C)(C)C)CC2)c1 | inactive: 30% |
| CCCOc1ccc(C(=O)NCC2(N(C)C)CCCCC2)cc1 | inactive: -1.83% |
| CC(C)(C)OC(=O)N1CCC(Nc2ccccc2)CC1 | inactive: -0.363% |
| O=C(O)C1(Nc2ccccc2)CCN(Cc2ccccc2)CC1 | inactive: 1.13% |
| CCOc1ncccc1C(=O)NCC1(N2CCOCC2)CCCCC1 | inactive: 19.4% |
| CN1CCC(Nc2ccc(F)c(Cl)c2)CC1 | inactive: -6.72% |
| O=C(NCC1(N2CCCCC2)CCCCC1)c1ccco1 | inactive: -10.6% |
| CN(C)c1ccc(C(=O)NCC2(N3CCCCC3)CCCCC2)cc1 | inactive: -3.11% |
| CCN1CCC(Nc2cccc(F)c2)CC1 | inactive: 4.29% |
| Cc1ccc(C(=O)NCC2(N3CCCCC3)CCCCC2)o1 | inactive: 20.2% |
| Fc1ccccc1NC1CCN(Cc2ccccc2)CC1 | inactive: -14.2% |
| COc1cc(OC)cc(C(=O)NCC2(N3CCCCC3)CCCCC2)c1 | inactive: 9.26% |
| c1ccc(CN2CCC(Nc3ccccc3)CC2)cc1 | inactive: 5.96% |
| CCCN1CCC(Nc2cc(OC)cc(OC)c2)CC1 | inactive: 4.1% |
| CN(C)C1(CNC(=O)c2cccc(C#N)c2)CCCCC1 | inactive: 3% |
| CC(C)(C)OC(=O)N1CCC(N(C(=O)c2ccccc2)c2ccc(Cl)cc2)CC1 | inactive: 33% |
| N#Cc1ccc(C(=O)NCC2(N3CCCCC3)CCCCC2)cc1 | inactive: 5.28% |
| O=C(OC1CN2CCC1CC2)C1c2ccccc2C=Cc2ccccc21 (configuration not stated) | inactive: -2.04% |
| CCc1cc(C(=O)NCC2(N3CCCCC3)CCCCC2)sc1C | inactive: 4% |

| SMILES | inhibition |
| --- | --- |
| N/C(=N\O)c1c(N)no[n+]1[O-] | inactive: -9.41% |
| CCOC(=O)N1CCC(Nc2ccc(C)cc2)CC1 | inactive: 10.6% |
| COc1ccc(C(=O)NCC2(N3CCOCC3)CCCCC2)cc1OC | inactive: -5.87% |
| O=C(NCC1(N2CCOCC2)CCCCC1)c1cc(Br)ccc1Cl | inactive: -1.31% |
| COc1cc(C(=O)NCC2(N3CCOCC3)CCCCC2)cc(OC)c1C | inactive: 15.9% |
| O=C(NCC1(N2CCCCC2)CCCCC1)c1cncc(Br)c1 | inactive: -0.134% |
| CN1CCC(Nc2cccc(F)c2)CC1 | inactive: -1.12% |
| COc1cc(OC)c(C(=O)NCC2(N(C)C)CCCCC2)cc1OC | inactive: -8.07% |
| O=C(NCC1(N2CCOCC2)CCCCC1)c1cc(F)c(F)cc1Cl | inactive: -3.65% |
| COc1ccc(CN(CCCl)CCCl)cc1Cl | inactive: -4.1% |
| CN(C)c1cccc(C(=O)NCC2(N3CCCCC3)CCCCC2)c1 | inactive: 3.71% |
| CC(C)c1ccc(NC2CCN(C(=O)OC(C)(C)C)CC2)cc1 | inactive: 18.5% |
| CN1CCN(CCOC(=O)C(O)(c2ccccc2)c2ccccc2)CC1 | inactive: -4.45% |
| CC(C)c1ccc(C(=O)NCC2(N3CCOCC3)CCCCC2)cc1 | inactive: 25.5% |
| COc1ccc(NC2CCN(C(=O)OC(C)(C)C)CC2)cc1 | inactive: 18.2% |
| COc1cc(C(=O)NCC2(N3CCCCC3)CCCCC2)ccc1OC(F)F | inactive: -5.05% |
| O=C(NCC1(N2CCOCC2)CCCCC1)c1cc(=O)[nH]c2ccccc12 | inactive: -11.1% |
| O=C(NCC1(N2CCCCC2)CCCCC1)c1cccc(C(F)(F)F)c1 | inactive: 4.91% |
| CSc1ccc(C(=O)NCC2(N3CCOCC3)CCCCC2)cc1 | inactive: 10.1% |
| O=C(NCC1(N2CCCCC2)CCCCC1)c1cccc([N+](=O)[O-])c1 | inactive: 4.1% |
| CCN1CCC(Nc2ccc(Cl)cc2)CC1 | inactive: 5.7% |
| N#CC1(Nc2ccccc2)CCN(CCc2ccccc2)CC1 | inactive: 10.6% |
| O=C(NCC1(N2CCCCC2)CCCCC1)c1ccc(OC(F)F)cc1 | inactive: 14.6% |

| SMILES | inhibition |
| --- | --- |
| CCOC(=O)N1CCC(Nc2cccc(C)c2)CC1 | inactive: 15.7% |
| Cc1ccc(OCC(C)C)c(CN(CCCl)CCCl)c1 | inactive: 22.2% |
| O=C(NCC1(N2CCCCC2)CCCCC1)c1ccc(F)cc1 | inactive: 11.6% |
| CCCCOc1ccc(C(=O)NCC2(N3CCOCC3)CCCCC2)cc1 | inactive: 16.6% |
| COc1ccc(NC2CCN(CCc3ccccc3)CC2)c(OC)c1 | inactive: -0.409% |
| CCOC(=O)N1CCC(Nc2ccc(F)cc2)CC1 | inactive: 17% |
| CCOc1ccc(C)cc1CN(CCCl)CCCl | inactive: 1.6% |
| CCOC(=O)N1CCC(Nc2ccc(OC)cc2)CC1 | inactive: 6.84% |
| O=C(OC1CN2CCC1CC2)C1c2ccccc2Oc2ccccc21 (configuration not stated) | inactive: -8.43% |
| N#CC1(Nc2ccccc2)CCN(Cc2ccccc2)CC1 | inactive: 10.9% |
| O=C(NCC1(N2CCCCC2)CCCCC1)c1ccc(Cl)s1 | inactive: 1.72% |
| COc1ccc(Cl)cc1C(=O)NCC1(N2CCOCC2)CCCCC1 | inactive: 25.2% |
| O=C(NCC1(N2CCOCC2)CCCCC1)c1cc2ccccc2o1 | inactive: 19.1% |
| O=C(NCC1(N2CCCCC2)CCCCC1)c1ccc(Cl)nc1 | inactive: 4.91% |
| Cc1cc(C)cc(N(C(=O)c2ccccc2)C2CCN(C(=O)OC(C)(C)C)CC2)c1 | inactive: 18.1% |
| CSc1ccccc1C(=O)NCC1(N2CCCCC2)CCCCC1 | inactive: 10.4% |
| O=C(NCC1(N2CCCCC2)CCCCC1)c1ccc(=O)[nH]c1 | inactive: 0.469% |
| O=C(NCC1(N2CCCCC2)CCCCC1)c1cccs1 | inactive: 20.7% |
| COc1ccc(C(=O)NCC2(N3CCCCC3)CCCCC2)cc1 | inactive: 12.4% |
| CC(C)(C)OC(=O)N1CCC(N(C(=O)c2ccccc2)c2ccc(F)cc2)CC1 | inactive: 18.3% |
| COc1ccc(C(=O)NCC2(N3CCCCC3)CCCCC2)c(OC)c1OC | inactive: -3.52% |
